Several values for one entry are separate records, joined by “and”; a condition that tells them apart may be missing. Identical values can stand only once. Like-named read-outs stand apart in the source and are kept apart here.

By UniProt entry, the sequences of proteins in these tests, tags left out. Where a name states a change or a piece, a line headed by the entry shows the natural chain unless it says otherwise. Chains listed by the source or under a name are the forms on record and can include a tag or linker.
UniProt P11229: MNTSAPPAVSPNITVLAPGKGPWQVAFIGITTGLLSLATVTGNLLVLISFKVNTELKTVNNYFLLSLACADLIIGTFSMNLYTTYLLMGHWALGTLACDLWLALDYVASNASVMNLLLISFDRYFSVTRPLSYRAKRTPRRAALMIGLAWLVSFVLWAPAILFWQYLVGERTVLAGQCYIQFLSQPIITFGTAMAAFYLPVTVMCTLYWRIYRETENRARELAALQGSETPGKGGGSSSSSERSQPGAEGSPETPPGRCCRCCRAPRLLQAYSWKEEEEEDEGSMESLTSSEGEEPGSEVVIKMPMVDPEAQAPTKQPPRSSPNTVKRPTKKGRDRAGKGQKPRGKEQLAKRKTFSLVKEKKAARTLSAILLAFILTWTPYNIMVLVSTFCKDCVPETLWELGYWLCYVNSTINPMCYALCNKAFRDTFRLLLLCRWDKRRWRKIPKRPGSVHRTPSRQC
UniProt P08172, other isoform, or with tags, fused parts or gaps: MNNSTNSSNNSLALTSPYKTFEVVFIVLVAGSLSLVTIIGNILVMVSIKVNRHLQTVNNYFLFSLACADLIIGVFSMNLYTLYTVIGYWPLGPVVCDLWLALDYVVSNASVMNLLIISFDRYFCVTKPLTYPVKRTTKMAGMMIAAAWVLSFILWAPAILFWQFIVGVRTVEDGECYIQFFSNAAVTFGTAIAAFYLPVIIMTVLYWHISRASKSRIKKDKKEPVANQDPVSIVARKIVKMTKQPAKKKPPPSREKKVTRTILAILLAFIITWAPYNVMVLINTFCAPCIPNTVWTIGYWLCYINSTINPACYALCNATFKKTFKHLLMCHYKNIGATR
UniProt P08173, whole entry L190F: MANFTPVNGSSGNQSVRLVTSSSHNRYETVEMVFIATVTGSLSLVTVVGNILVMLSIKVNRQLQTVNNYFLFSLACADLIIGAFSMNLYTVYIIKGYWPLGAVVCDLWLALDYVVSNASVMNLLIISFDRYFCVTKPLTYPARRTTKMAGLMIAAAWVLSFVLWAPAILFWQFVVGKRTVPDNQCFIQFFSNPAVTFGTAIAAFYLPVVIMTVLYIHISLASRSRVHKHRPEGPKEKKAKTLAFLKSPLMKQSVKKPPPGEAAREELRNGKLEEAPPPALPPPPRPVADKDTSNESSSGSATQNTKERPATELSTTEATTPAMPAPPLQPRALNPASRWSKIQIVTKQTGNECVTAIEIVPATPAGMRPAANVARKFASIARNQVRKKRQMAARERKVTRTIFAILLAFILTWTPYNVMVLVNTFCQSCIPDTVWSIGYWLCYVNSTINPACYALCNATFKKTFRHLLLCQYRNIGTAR
UniProt P08173, whole entry: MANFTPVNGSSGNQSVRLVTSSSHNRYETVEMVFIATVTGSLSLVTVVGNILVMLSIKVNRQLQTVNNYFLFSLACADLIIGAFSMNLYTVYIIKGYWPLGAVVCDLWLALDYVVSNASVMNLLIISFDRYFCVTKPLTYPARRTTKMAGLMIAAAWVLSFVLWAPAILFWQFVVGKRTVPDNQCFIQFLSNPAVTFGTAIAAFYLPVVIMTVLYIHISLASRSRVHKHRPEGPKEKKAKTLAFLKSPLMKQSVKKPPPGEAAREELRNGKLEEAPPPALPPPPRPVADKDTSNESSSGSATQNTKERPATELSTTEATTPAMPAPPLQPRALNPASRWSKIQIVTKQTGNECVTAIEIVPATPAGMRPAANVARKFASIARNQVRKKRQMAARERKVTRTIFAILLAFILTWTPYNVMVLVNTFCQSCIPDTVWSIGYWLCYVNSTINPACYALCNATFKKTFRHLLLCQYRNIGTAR
UniProt P08912, whole entry: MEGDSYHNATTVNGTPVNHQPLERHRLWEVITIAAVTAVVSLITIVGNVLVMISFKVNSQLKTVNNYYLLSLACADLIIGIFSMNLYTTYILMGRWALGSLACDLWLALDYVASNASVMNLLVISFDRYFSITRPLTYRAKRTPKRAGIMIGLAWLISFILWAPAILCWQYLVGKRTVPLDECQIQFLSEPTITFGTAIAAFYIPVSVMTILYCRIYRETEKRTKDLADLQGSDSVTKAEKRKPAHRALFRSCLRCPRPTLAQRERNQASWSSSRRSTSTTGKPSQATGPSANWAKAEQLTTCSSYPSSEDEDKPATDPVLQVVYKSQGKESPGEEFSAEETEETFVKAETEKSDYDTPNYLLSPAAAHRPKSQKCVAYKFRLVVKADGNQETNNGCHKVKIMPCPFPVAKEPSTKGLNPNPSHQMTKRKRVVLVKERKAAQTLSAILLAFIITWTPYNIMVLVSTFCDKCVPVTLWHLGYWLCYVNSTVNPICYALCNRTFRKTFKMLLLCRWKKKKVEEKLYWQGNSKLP

For one experiment, the target named is M1 mAChR (Homo sapiens, UniProt P11229). Conditions: first set of experiments.
The next experiment addresses M2 mAChR (Homo sapiens, UniProt P08172). The conditions noted are these: for Figure 4a normalised binding, G+: M2, G+; for Figure 4a normalised binding, G-: M2, G-; for Fraction of receptors in a G protein-dependent high-affinity state: M2 mAChR.
The target of another experiment is M4 L190F mAChR (Homo sapiens, UniProt P08173, L190F). Description: pERK1/pERK2 signaling assay (AlphaScreen SureFire), CHO FlpIn cells. It counts as cell-based. The conditions noted are these: second set of experiments. In general terms: In Alpha technology, singlet oxygen from a donor bead excites a nearby acceptor bead.
The target of the next experiment is M5 mAChR (Homo sapiens, UniProt P08912). The description is as above. The experiment is classed as cell-based. The conditions noted are these: first set of experiments.
The target in another experiment is M4 mAChR (Homo sapiens, UniProt P08173). Described as above.
[1] abbreviates: log[Xano] M -4, individual experiments.
Setting [2] is: log[Xano] M -4.5, individual experiments.
Where [3] appears, read: log[Xano] M -5, individual experiments.
Setting [4] is: log[Xano] M -6, individual experiments.
Where [5] appears, read: log[Xano] M -7, individual experiments.
The mark [6] stands for this setting: log[Xano] M -8, individual experiments.

On to `CCCCCCOc1nsnc1C1=CCCN(C)C1` [Xanomeline, xanomeline], for which, on M1 mAChR, the “Emax pERK1/2” value is given as 79 ± 5 % FBS stimulation. Also, the “Figure 4a normalised binding, G+” value on M2 mAChR (setting [1]) was 5.146 and 9.812 and 8.929; at M2 mAChR (setting [2]), 1.434 and 8.6224 and 4.545; on M2 mAChR (setting [3]), 0 and -2.081 and 19.1558; on M2 mAChR (setting [4]), 20.6664 and 27.0565 and 26.9481; at M2 mAChR (setting [5]), 54.5761 and 40.4221; on M2 mAChR (setting [6]), 97.849 and 52.2299 and 31.9805. For the same compound, the “Figure 4a normalised binding, G-” value at M2 mAChR (setting [1]) was -2.951 and -0.531 and -4.32; at M2 mAChR (setting [2]), 0.8048 and 6.0177 and -5.832; on M2 mAChR (setting [3]), 5.298 and 13.6283 and -1.512; on M2 mAChR (setting [4]), 35.5466 and 54.5133 and 82.5054; on M2 mAChR (setting [5]), 87.9276 and 98.2301 and 107.775; at M2 mAChR (setting [6]), 100 and 75.5752. Besides, the “Energy of state RL (ternary complex model)” value on M2 mAChR (M2, relative to R = 0) is recorded as -8.151 kcal/mol. Moreover, the “Energy of state RLG (ternary complex model)” value on M2 mAChR (M2, relative to R = 0) is -24.4535 kcal/mol. For the same compound, the “Fraction of receptors in a G protein-dependent high-affinity state” value on M2 mAChR (Receptor : G protein Molar Ratio 1:0) is reported as 0.00 ± 0.27; on M2 mAChR (Receptor : G protein Molar Ratio 1:500), 0.00 ± 0.29; at M2 mAChR (Receptor : G protein Molar Ratio 1:1000), 0.17± 0.33; on M2 mAChR (Receptor : G protein Molar Ratio 1:2000) it was 0.59 ± 0.60. Further, the “pKI high (high-affinity state, Gi1-receptor complex)” value at M2 mAChR (M2 nanodiscs, Receptor : G protein molar ratio 1:1000) was found to be 7.10 ± 0.94.
Turning to `CC(=O)OCC[N+](C)(C)C` [Acetylcholine, acetylcholine], the “Efficacy corrected for receptor expression levels (LogtC), operational model, pERK1/2” value on M4 L190F mAChR came out at 3.82 ± 0.14; on M5 mAChR, 3.43 ± 0.16; at M4 mAChR (first set of experiments (top 5 rows)) it was 2.94 ± 0.10; on M4 mAChR (second set of experiments (bottom 4 rows)) it was 3.59 ± 0.08.

These data come from paper PMC10299909 (2023).
